Data on 1 compound can be found in PMC10064817, “Absolute oral bioavailability and possible metabolic pathway of panduratin A from Boesenbergia rotunda extract in beagle dogs” (Pharmaceutical Biology, 2023).

The conditions of this data set: dog, in vivo, iv, 1 mg/kg.

For the compound `COc1cc(O)c(C(=O)[C@@H]2[C@H](CC=C(C)C)C(C)=CC[C@H]2c2ccccc2)c(O)c1` [Panduratin A, panduratin A], the Body weight is given as 12.30 ± 1.21.
